Assay [1] deals with Tyrosine-protein phosphatase non-receptor type 11 (Homo sapiens, UniProt Q06124, K364R). In words: Inhibition of SHP2 K364R mutant.
Assay [2] deals with T1, Tyrosine-protein phosphatase non-receptor type 11 (Homo sapiens, UniProt Q06124). In words: Reversible inhibition at SHP2 catalytic domain assessed as inhibition of pNPP to p-nitrophenol conversion by spectrophotometry.
The target in assay [3] is T1, Tyrosine-protein phosphatase non-receptor type 11. In words: Competitive inhibition at SHP2 catalytic domain assessed as inhibition of pNPP to p-nitrophenol conversion by spectrophotometry.
The target is the same in assay [4]. In words: Inhibition of SHP2 catalytic domain assessed as inhibition of pNPP to p-nitrophenol conversion after 5 mins by spectrophotometry.

Chains of the proteins cited; added tags and fusions are not shown. Lines headed by an entry give the natural chain unless they say otherwise; changes in a name come on top.
UniProt Q06124, whole entry: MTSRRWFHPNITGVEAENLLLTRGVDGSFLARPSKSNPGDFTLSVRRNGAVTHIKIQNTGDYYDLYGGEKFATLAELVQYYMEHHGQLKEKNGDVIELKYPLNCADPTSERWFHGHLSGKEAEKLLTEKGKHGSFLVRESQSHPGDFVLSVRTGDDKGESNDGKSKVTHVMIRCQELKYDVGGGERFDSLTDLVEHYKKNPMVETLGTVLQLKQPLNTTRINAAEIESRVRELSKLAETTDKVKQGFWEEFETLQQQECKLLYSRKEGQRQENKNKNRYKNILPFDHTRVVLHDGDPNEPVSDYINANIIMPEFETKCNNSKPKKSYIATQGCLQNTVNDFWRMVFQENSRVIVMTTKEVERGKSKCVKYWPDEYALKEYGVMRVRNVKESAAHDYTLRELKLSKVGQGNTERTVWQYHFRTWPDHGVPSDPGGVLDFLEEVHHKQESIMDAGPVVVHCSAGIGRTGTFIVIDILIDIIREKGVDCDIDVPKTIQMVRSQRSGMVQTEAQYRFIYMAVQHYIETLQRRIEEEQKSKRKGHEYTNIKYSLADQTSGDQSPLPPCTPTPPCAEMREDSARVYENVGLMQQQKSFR

By IC50 is commonly meant the concentration that inhibits the measured activity by half. In general, Ki refers to a dissociation constant, usually derived from enzyme kinetics or from competition with a known ligand. `Cc1cc(S(=O)(=O)O)c(S(=O)(=O)O)cc1N1N=C(C(=O)O)CC1=O`: the 50% inhibitory concentration (IC50) in assay [1] turned out to be 26 µM; in assay [4] it was 8.3 µM. The Ki in assay [2] and in assay [3] was 4.6 µM throughout.

(Values after ChEMBL document CHEMBL1800013, “Small molecule inhibitors of SHP2 tyrosine phosphatase discovered by virtual screening” (Bioorg Med Chem Lett, 2011).)
